This is an account of results in ChEMBL document CHEMBL4393671, “Design of a Cyclin G Associated Kinase (GAK)/Epidermal Growth Factor Receptor (EGFR) Inhibitor Set to Interrogate the Relationship of EGFR and GAK in Chordoma” (J Med Chem, 2019).

Chains of the proteins cited; added tags and fusions are not shown.
UniProt P00533, whole entry: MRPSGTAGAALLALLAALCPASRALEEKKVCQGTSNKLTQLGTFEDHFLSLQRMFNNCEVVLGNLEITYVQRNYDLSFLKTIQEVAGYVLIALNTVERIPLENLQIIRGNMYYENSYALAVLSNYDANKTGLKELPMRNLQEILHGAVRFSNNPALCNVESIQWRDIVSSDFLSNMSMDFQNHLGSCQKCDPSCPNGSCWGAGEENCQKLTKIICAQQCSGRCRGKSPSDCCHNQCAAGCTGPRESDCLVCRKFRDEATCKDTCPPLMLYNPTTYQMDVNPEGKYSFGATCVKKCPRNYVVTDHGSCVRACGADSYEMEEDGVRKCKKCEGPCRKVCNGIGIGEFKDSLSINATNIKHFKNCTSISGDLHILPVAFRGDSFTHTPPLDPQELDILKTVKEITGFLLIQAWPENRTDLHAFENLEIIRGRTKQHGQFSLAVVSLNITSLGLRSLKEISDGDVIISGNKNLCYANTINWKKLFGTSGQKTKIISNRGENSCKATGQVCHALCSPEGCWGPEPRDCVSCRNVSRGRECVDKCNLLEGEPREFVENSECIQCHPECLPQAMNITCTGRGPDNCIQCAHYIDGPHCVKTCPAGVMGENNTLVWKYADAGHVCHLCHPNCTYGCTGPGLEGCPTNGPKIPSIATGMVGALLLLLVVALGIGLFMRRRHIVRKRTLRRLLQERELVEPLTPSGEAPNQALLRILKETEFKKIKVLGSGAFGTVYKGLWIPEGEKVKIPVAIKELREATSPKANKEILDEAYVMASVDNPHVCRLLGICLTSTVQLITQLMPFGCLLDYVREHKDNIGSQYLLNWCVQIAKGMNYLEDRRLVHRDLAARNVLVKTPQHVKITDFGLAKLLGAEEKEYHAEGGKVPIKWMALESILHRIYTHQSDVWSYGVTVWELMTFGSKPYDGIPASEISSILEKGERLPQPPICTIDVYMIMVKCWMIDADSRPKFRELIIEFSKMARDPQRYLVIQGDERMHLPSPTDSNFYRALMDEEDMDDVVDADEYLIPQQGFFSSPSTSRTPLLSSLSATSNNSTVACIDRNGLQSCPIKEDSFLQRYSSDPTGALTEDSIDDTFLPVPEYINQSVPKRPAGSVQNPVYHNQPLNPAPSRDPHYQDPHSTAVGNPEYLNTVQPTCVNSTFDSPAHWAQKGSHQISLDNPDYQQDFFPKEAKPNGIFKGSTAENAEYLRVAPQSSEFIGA

Assay [1] has as its target T1, Epidermal growth factor receptor (Homo sapiens, UniProt P00533). Type of assay: cell-based.
The target of assay [2] is T1, Epidermal growth factor receptor.
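For IC50 in this document: human A431 cells pretreated 90 min, then EGF stimulated, sandwich ELISA measured decrease in EGF-induced receptor autophosphorylation.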
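For Kd in this document: KINOMEscan competition binding with recombinant partial wild-type human EGFR (residues R669–V1011) produced in bacteria.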

By IC50 is commonly meant the point on the concentration scale where inhibition reaches its midpoint. As usually defined, the Kd is a measure of binding affinity in units of concentration. Read a high Kd as weaker binding. On to `COc1cc2ncnc(Nc3cc(OC)c(OC)c(OC)c3)c2cc1OC`, for which half-maximal inhibition in assay [1] (IC50) was put at 5400 nM. The Kd in assay [2] was found to be 22 nM.
